For series [1] the following is noted: cited from earlier work.

ammonium thiocyanide: the “Solubility (gm solute per 100 gm water at 20° C.)” value in series [1] was 144 gm solute per 100 gm water. As to sodium perchlorite dihydrate, the “Heat Absorbed (during dissolution of compound in 100 gm of water at 25° C. in kJ)” value (saturated solution in 100 gm of water at 25° C.) was determined as 32.22 kJ. Besides, the “Theoretical Change in Temperature of a saturated solution (° C.)” value (saturated solution, no heat loss) was determined as 26 °C.

As for ammonium nitrite, in series [1], the “Solubility (gm solute per 100 gm water at 20° C.)” value is on record as 150 gm solute per 100 gm water.
